Measured values: PubChem BioAssay AID686979 (National Center for Advancing Translational Sciences (NCATS), 2013)
This is a selection; strong and weak results do not stand in their true shares. Records with an inconclusive call do not appear. Where a call stands in place of a potency, no number is given. Some structures show a salt or complex split into parts, the way the source records it. Active and inactive are the calls of the source. Calls follow the shape of the dose curve; as a rule, active = well fitted inhibition curve with a large enough effect; inconclusive = small, poorly fitted or top-dose-only effect; inactive = flat fitted curve, though single readings scatter.

Assay: qHTS for Inhibitors of human tyrosyl-DNA phosphodiesterase 1 (TDP1): qHTS in cells in presence of CPT; also: nearly all actives have a fitted effect of over 55% in size
Settings: chicken DT40 Tdp1-/-;hTDP1 cells + 20 nM CPT, ATP luminescence, 48 h; series mostly up to 46.2 µM
Potency is read from the fitted curve at half-maximal effect.

| Compound | Potency |
| --- | --- |
| CN(C)C1(CNC(=O)c2cccc(C#N)c2)CCCCC1 | inactive |
| c1ccc(CN2CCC(Nc3ccccc3)CC2)cc1 | inactive |
| CCCN1CCC(Nc2cc(OC)cc(OC)c2)CC1 | inactive |
| N#Cc1ccc(C(=O)NCC2(N3CCCCC3)CCCCC2)cc1 | inactive |
| CCOC(=O)C(CC)C1=NC(C)(C)Cc2ccccc21.O=[N+]([O-])c1cc([N+](=O)[O-])c(O)c([N+](=O)[O-])c1 (stereo not given) | inactive |
| CCOC(=O)N1CCC(Nc2ccc(C)cc2)CC1 | inactive |
| N/C(=N\O)c1c(N)no[n+]1[O-] | inactive |
| O=C(O)c1cccc(Nc2c([N+](=O)[O-])cc([N+](=O)[O-])cc2[N+](=O)[O-])c1 | inactive |
| COc1ccc(C(=O)NCC2(N3CCOCC3)CCCCC2)cc1OC | inactive |
| COc1cc(OC)cc(C(=O)NCC2(N3CCOCC3)CCCCC2)c1 | inactive |
| CCC(CO)(C(=O)OC1CN2CCC1CC2)c1ccccc1 (stereo not given) | inactive |
| CN1CCC(Nc2ccc(Cl)cc2)CC1 | inactive |
| CN1CCC(Nc2ccc(F)c(Cl)c2)CC1 | inactive |
| CC(C)(C)OC(=O)N1CCC(Nc2ccccc2)CC1 | inactive |
| O=C(O)C1(Nc2ccccc2)CCN(Cc2ccccc2)CC1 | inactive |
| CCCOc1ccc(C(=O)NCC2(N(C)C)CCCCC2)cc1 | inactive |
| Cc1ccccc1NC1(C#N)CCN(Cc2ccccc2)CC1 | inactive |
| CCN1CCC(Nc2cccc(F)c2)CC1 | inactive |
| Cc1ccccc1C(=O)NCC1(N(C)C)CCCCC1 | inactive |
| O=C(NCC1(N2CCCCC2)CCCCC1)c1ccco1 | inactive |
| CN(C)c1ccc(C(=O)NCC2(N3CCCCC3)CCCCC2)cc1 | inactive |
| CN(C)C1(CNC(=O)c2ccc(C(C)(C)C)cc2)CCCCC1 | active: 18.4 µM |

| Compound | Potency |
| --- | --- |
| COc1cc(OC)cc(C(=O)NCC2(N3CCCCC3)CCCCC2)c1 | inactive |
| Cc1ccc(C(=O)NCC2(N3CCCCC3)CCCCC2)o1 | inactive |
| Fc1ccccc1NC1CCN(Cc2ccccc2)CC1 | inactive |
| Cc1ccc(NC2(C#N)CCN(Cc3ccccc3)CC2)cc1 | inactive |
| CCOC(=O)N1CCC(Nc2cccc(C)c2)CC1 | inactive |
| COc1cc(C(=O)NCC2(N(C)C)CCCCC2)ccc1OC(F)F | inactive |
| O=P1(N(CCCl)CCCl)SCCCS1 | inactive |
| O=C(NCC1(N2CCCCC2)CCCCC1)c1ccc(F)cc1 | inactive |
| CCOC(=O)N1CCC(Nc2ccc(F)cc2)CC1 | inactive |
| COc1ccc(NC2CCN(CCc3ccccc3)CC2)c(OC)c1 | inactive |
| O=C(NCC1(N2CCCCC2)CCCCC1)c1ccc(Cl)nc1 | inactive |
| O=C(NCC1(N2CCCCC2)CCCCC1)c1ccc(Cl)s1 | inactive |
| N#CC1(Nc2ccccc2)CCN(Cc2ccccc2)CC1 | inactive |
| O=C1C(O)=C([N+](=O)[O-])C(=O)C(O)=C1[N+](=O)[O-] | inactive |
| CCOC(=O)N1CCC(Nc2ccc(OC)cc2)CC1 | inactive |
| COc1ccc(C(=O)NCC2(N3CCCCC3)CCCCC2)cc1 | inactive |
| CC(C)(C)OC(=O)N1CCC(N(C(=O)c2ccccc2)c2ccc(F)cc2)CC1 | inactive |
| CCC(c1nnnn1C1CCCC1)N1CCC(n2c(=O)[nH]c3ccccc32)CC1 (stereo not given) | inactive |
| O=C(NCC1(N2CCCCC2)CCCCC1)c1ccc(=O)[nH]c1 | inactive |
| O=C(NCC1(N2CCCCC2)CCCCC1)c1cccs1 | inactive |
| Cc1cccc(NC2(C#N)CCN(Cc3ccccc3)CC2)c1 | inactive |
| O=C(OC1CN2CCC1CC2)c1ccc([N+](=O)[O-])cc1 (stereo not given) | inactive |

| Compound | Potency |
| --- | --- |
| CN1CCC(Nc2cccc(F)c2)CC1 | inactive |
| O=C(NCC1(N2CCCCC2)CCCCC1)c1cncc(Br)c1 | inactive |
| COc1ccc2c(c1O)-c1c(O)c(OC)cc3c1[C@H](C2)[N+](C)(C)CC3.O=[N+]([O-])c1cc([N+](=O)[O-])c([O-])c([N+](=O)[O-])c1[O-] | inactive |
| CCCCOc1ccccc1C(=O)NCC1(N2CCOCC2)CCCCC1 | active: 16.4 µM |
| Cc1ccc(C(=O)NCC2(N(C)C)CCCCC2)o1 | inactive |
| CCCOc1ccc(C(=O)NCC2(N(C)C)CCCCC2)cc1OC | inactive |
| CN(C)c1cccc(C(=O)NCC2(N3CCCCC3)CCCCC2)c1 | inactive |
| COc1cc(OC)c(C(=O)NCC2(N(C)C)CCCCC2)cc1OC | inactive |
| CCN(CC)CCCNc1ccccc1[N+](=O)[O-].O=[N+]([O-])c1cc([N+](=O)[O-])c(O)c([N+](=O)[O-])c1 | inactive |
| O=C(NCC1(N2CCOCC2)CCCCC1)c1cc(F)c(F)cc1Cl | inactive |
| O=C(NCC1(N2CCCCC2)CCCCC1)c1cccc(C(F)(F)F)c1 | inactive |
| CCCOc1cccc(C(=O)NCC2(N3CCOCC3)CCCCC2)c1 | inactive |
| O=C(NCC1(N2CCOCC2)CCCCC1)c1cc(=O)[nH]c2ccccc12 | inactive |
| COc1cc(C(=O)NCC2(N3CCCCC3)CCCCC2)ccc1OC(F)F | inactive |
| COc1ccc(NC2CCN(C(=O)OC(C)(C)C)CC2)cc1 | inactive |
| CN1CCN(CCOC(=O)C(O)(c2ccccc2)c2ccccc2)CC1 | inactive |
| O=C(NCC1(N2CCCCC2)CCCCC1)c1ccc(OC(F)F)cc1 | inactive |
| CCN1CCC(Nc2ccc(Cl)cc2)CC1 | inactive |
| N#CC1(Nc2ccccc2)CCN(CCc2ccccc2)CC1 | inactive |
| O=C(NCC1(N2CCCCC2)CCCCC1)c1cccc([N+](=O)[O-])c1 | inactive |
| CSc1ccc(C(=O)NCC2(N3CCOCC3)CCCCC2)cc1 | inactive |
